From patent publication US9139795B2, “Biodegradable lubricant composition” (IDEMITSU KOSAN CO., LTD., priority 2009, dated 2015) come the findings set out here.

The series in a line: Biodegradability, modified MITI test method (OECD301C). To be noted: base oil ester alone.

The substance di(pentaerythritol)oleate gave a Biodegradability of 62.0%.
